Experimental data as given in PMC11094663 (Journal of ethnopharmacology, 2022).

The chains behind the UniProt entries cited, without tags or fusion partners.
UniProt P08684, whole entry: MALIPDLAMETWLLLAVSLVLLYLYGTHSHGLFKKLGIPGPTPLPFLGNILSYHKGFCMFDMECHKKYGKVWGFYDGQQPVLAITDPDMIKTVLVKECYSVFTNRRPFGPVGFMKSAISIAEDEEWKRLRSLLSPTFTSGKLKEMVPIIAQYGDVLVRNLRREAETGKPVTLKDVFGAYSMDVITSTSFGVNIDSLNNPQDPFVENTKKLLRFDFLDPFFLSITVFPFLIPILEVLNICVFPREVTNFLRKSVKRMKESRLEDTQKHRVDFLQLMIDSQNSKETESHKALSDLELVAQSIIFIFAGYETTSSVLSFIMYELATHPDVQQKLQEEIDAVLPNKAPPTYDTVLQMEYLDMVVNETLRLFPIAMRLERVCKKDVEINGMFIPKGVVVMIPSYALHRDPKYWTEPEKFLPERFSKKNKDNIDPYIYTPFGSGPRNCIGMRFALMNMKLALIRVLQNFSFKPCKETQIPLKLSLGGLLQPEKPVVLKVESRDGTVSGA

Tests used:
[1] = molecular target: T1, pregnane X receptor (PXR) (Homo sapiens, UniProt O75469); type: cell-based
T1 sequence (O75469 1-434): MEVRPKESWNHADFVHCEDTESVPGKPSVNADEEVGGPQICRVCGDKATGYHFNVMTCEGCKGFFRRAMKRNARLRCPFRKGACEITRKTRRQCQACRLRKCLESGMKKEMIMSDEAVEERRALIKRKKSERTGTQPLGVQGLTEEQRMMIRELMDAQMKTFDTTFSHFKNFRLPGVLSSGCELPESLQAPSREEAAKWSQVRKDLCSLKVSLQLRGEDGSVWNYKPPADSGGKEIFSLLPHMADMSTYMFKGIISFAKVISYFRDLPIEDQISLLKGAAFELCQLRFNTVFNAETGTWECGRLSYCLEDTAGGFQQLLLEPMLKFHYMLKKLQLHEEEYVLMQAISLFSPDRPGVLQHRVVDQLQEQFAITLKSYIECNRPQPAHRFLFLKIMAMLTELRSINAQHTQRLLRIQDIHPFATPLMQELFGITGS

CYP3A4 = CYP3A4 (Homo sapiens, UniProt P08684); test: Cytochrome P450

SMILES | fold induction at 24 h, 12.5 μg/mL [1] | fold induction at 24 h, 25 μg/mL [1] | fold induction at 24 h, 50 μg/mL [1] | IC50 (CYP3A4)
COc1cc2c(cc1O)CC[n+]1cc3c(OC)c(OC)ccc3cc1-2 [Jatrorrhizine] | 1.48 ± 0.01 | 1.94 ± 0.04 | 2.44 ± 0.05 | 28.1 µM
COc1ccc2c(c1O)-c1c(O)c(OC)cc3c1[C@H](C2)[N+](C)(C)CC3 [Magnoflorine] | 1.01 ± 0.15 | 1.16 ± 0.15 | 1.41 ± 0.12 | 105 µM
